Reference: ChEMBL document CHEMBL3046010, “Synthesis and pharmacological evaluation of 4-[2-hydroxy-3-(4-phenyl-piperazin-1-yl)-propoxy]-4-azatricyclo[5.2.1.02,6]dec-8-ene-3,5-dione” (Med Chem Res, 2008)

The chains behind the UniProt entries cited, without tags or fusion partners.
UniProt P19327, whole entry: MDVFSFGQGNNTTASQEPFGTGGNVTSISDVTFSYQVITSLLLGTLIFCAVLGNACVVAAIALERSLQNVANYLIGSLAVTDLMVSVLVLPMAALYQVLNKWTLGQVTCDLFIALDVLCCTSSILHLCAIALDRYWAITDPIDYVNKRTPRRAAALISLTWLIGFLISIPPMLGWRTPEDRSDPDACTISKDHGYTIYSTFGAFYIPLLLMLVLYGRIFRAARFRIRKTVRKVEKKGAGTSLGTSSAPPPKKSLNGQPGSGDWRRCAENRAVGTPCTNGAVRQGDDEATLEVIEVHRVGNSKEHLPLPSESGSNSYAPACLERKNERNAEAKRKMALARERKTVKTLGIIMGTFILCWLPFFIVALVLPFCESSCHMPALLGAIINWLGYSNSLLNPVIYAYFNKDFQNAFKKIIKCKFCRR

Target: 5-hydroxytryptamine receptor 1A (Rattus norvegicus, UniProt P19327)
Test: Displacement of [3H]8-OH-DPAT from 5HT1A receptor in Rattus norvegicus (rat) cerebral cortex after 15 min by filter binding assay
Type: tissue-based

NCCc1c[nH]c2ccc(O)cc12 [SEROTONIN]
Ki: 9 nM
